Molecular target: α-synuclein (αS) (Homo sapiens, UniProt P37840)
Experiment: seeded aggregation kinetics (ThT fluorescence), secondary nucleation assay, pH […] °C
Type: biochemical
Settings: read-out: seeded aggregation kinetics (ThT fluorescence), secondary nucleation assay, pH 4

SMILES: Cc1ccc(N2NC(=O)C(=Cc3c(O)[nH]c(=O)[nH]c3=O)C2=O)cc1
- IC50: 0.42 µM
